For two molecules, IC50 results are on record in US8633183B2 (priority 2010, dated 2014).

Sequences of proteins named here, by UniProt entry; tags and fusion partners are left off.
UniProt P42336, whole entry, looked up: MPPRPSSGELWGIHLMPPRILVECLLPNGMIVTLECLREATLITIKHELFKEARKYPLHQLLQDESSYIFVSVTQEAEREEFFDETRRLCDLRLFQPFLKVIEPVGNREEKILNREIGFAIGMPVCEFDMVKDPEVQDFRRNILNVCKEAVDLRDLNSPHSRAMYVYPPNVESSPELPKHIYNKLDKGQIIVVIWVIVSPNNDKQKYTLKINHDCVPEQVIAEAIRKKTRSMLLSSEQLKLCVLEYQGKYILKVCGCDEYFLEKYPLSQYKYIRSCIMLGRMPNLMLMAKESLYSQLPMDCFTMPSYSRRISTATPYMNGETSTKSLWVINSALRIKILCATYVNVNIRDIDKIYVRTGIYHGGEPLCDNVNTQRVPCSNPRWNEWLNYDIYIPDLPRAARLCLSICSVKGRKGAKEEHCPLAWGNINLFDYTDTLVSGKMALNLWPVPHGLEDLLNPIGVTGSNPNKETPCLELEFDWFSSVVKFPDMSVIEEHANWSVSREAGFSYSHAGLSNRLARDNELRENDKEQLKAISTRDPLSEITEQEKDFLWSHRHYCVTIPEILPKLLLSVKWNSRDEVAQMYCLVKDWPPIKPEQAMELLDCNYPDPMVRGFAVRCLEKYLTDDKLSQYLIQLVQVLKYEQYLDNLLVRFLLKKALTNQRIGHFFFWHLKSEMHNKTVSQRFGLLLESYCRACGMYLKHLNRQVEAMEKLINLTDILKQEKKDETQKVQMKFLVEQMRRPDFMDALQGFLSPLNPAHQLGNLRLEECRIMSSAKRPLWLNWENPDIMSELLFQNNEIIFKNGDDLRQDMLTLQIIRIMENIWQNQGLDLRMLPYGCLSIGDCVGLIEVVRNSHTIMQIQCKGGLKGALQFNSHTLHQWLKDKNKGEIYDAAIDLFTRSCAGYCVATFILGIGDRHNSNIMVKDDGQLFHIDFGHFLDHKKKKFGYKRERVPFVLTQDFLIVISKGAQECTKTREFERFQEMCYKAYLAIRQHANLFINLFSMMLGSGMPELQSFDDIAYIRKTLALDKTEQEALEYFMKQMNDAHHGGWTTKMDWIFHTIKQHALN

The assay deals with PI3Kalpha (Homo sapiens (Human), UniProt P42336). As to conditions: read-out: IC50 PI3K.

Turning to `CCc1ncnc(-c2ccc(C(C)(C)C#N)cc2)c1C#Cc1ccc(N)nc1` [Example C-1], the IC50 was 26 nM.

Consider `CCc1ncnc(-c2ccc(C3CC3)nc2)c1C#Cc1ccc(N)nc1` [Example C-35], for which the IC50 turned out to be 29 nM.
